According to patent US20160152711A1:

Target: sEGFR domain III (residues 310-512) (human) (UniProt P00533)
Experiment: SPR (Biacore T100), steady state, sEGFRdIII amine-coupled to CM5 chip

Kd: 91 nM
Substance: Fab 425
